From patent publication US20260315612A1, “Topoisomerase Inhibitors, Methods of Making, and Methods of Use Thereof” (NJ Bio, Inc., priority 2023, published 2026)

System: SKBR-3 cell line (human breast cancer)
Assay: Cytotoxicity Assay (Cell titer glo, 72 h), SKBR-3
Assay type: cell-based
Conditions: ratio of payload IC50 to DXD control IC50
Method: Day 1: 2,000 cells/well were plated and incubated at 37° C. overnight.
Day 2: Payload/ADC/vehicle control dilutions were made in respective media and added to cells. Volume added: 50 uL to each well. Starting treatment concentration was 1 mM for free payloads/1 μM for ADC's/10% for vehicle control and then diluted 10-fold down for a total of 11 treatment dilutions. Each concentration was analyzed in triplicates. Media-only wells were used as a control to calculate percent viability.
Day 5: Cell titer glow reagent (volume: 50 uL) was added to each well, the plate was shaken for 5 mins and the luminescence was recorded. Drug Treatment Time: 72 hours. Data Analysis: Percent viability was calculated by dividing the luminescence signal obtained for each treated well by the untreated well (media-only control) and multiplying by 100. Data was next transformed using X=Log (x) and then analyzed with nonlinear regression (curve fit), Dose Response inhibition−log (inhibitor) vs response (3 parameters) using PRISM software to determine the IC50 value.

CC[C@@]1(O)C(=O)OCc2c1cc1n(c2=O)Cc2c-1nc1cc(F)c(C)cc1c2Cn1cc(-c2cccc(N)n2)nn1 [Payload 48]
Normalized IC50 (PL IC50/DXD IC50): 6.44
